{"sequences": {"note": "Amino acid sequences for entries named in this document (tags omitted). A change or cut given only in a name is not applied to a line headed by its entry.", "UniProt Q96FL8": "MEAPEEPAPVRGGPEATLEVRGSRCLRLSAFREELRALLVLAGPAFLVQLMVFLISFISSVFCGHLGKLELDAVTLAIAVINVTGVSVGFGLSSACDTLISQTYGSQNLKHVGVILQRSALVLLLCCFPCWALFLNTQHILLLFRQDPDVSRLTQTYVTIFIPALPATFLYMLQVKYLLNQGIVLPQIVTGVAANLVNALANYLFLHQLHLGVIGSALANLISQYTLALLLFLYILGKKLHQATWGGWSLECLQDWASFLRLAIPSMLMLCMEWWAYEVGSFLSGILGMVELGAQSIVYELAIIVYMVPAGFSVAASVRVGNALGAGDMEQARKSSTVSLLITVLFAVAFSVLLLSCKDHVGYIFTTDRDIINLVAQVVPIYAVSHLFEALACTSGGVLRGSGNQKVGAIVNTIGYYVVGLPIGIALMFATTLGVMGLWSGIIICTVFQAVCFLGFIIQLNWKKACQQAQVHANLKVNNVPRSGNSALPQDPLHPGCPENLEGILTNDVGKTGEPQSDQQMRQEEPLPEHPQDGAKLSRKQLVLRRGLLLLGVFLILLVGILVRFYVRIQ"}, "source": "paper PMC3830718", "about": "(Toxicology and applied pharmacology, 2013)", "key": {"[1]": {"target": "human MATE1 (hMATE1) (Homo sapiens, UniProt Q96FL8)", "assay": "Inhibition of metformin accumulation in HEK-293 cells stably expressing hMATE1", "type": "cell-based"}, "[2]": {"target": "T1, human MATE2-K (hMATE2-K) (Homo sapiens, UniProt Q86VL8)", "T1 sequence (Q86VL8 1-566 isoform Q86VL8-3)": "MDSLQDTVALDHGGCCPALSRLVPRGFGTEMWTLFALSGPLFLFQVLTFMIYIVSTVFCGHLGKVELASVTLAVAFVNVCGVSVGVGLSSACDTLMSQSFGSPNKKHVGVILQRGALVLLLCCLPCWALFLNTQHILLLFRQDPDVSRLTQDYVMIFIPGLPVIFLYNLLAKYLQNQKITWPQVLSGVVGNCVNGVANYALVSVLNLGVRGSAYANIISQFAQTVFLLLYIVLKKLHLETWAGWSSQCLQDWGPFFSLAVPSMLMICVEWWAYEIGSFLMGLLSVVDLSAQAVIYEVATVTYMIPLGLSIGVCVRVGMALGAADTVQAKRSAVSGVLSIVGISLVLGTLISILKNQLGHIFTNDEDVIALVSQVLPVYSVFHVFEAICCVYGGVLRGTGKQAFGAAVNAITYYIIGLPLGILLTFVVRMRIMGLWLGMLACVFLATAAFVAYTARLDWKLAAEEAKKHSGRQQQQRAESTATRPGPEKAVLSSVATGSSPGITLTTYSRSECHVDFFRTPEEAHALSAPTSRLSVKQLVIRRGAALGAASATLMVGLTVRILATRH", "assay": "Inhibition of metformin accumulation in HEK-293 cells stably expressing hMATE2-K", "type": "cell-based"}}, "data": [{"smiles": "Cc1nccn1CC1CCc2c(c3ccccc3n2C)C1=O", "note": "(centres unmarked) [ondansetron]", "values": [{"measurement": "Ki", "setting": "[1]", "value": 35, "unit": "nM"}, {"measurement": "Ki", "setting": "[2]", "value": 15, "unit": "nM"}]}]}
